CCCc1nn(C)c2c(=O)[nH]c(-c3cc(S(=O)(=O)N4CCN(C)CC4)ccc3OCC)nc12.O=C(O)CC(O)(CC(=O)O)C(=O)O
solubility (mole fraction)
Settings | 293.2 K | 298.2 K | 303.2 K | 308.2 K | 313.2 K
in isopropanol | 3.7e-05 | 5.53e-05 | 8.44e-05 | 0.000122 | 0.000167
in water | 0.000136 | 0.000158 | 0.000194 | 0.000235 | 0.000324

Reference: BigSolDB 2.1
